# Apparent affinities of Ab-14 variants for a coronavirus HR2 peptide

Antigen: PDVDLGDISGINAS, a 14-residue peptide of the SARS-CoV-2 spike HR2 region.

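The starting antibody came from a phage panning campaign against this peptide. Library AAYL49 holds single substitutions and randomly drawn double and triple substitutions in the CDRs. AlphaSeq pools MATa yeast showing the antibodies with MATalpha yeast showing the peptide. Pairs that bind mate more often; barcode pairs of the diploids are counted by sequencing. Scores were corrected for input abundance and mapped to Kd with protein pairs of known affinity run in the same pool. Mating was done three times.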

Parent scFv Ab-14: VH joined to VL by a (GGGGS)3 linker. Changes lie in the heavy chain CDRs alone.
VH: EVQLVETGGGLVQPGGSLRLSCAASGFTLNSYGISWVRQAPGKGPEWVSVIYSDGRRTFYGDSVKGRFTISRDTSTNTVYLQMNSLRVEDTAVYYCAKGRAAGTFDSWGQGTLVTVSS
VL: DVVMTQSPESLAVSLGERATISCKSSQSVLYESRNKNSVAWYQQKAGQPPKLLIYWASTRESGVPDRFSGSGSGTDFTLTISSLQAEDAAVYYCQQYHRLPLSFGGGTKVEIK

Positions count from residue 1 of the parent VH; R100E puts E in place of R. This list gathers variants with a substitution at R100 (VH, numbered from residue 1). The Kd shown is the geometric mean over detected replicates; a lower Kd is a better binder. A pair that was not seen in any replicate is written "no signal"; this usually means weak binding, but a binder can also be missed. Entries are sorted by rising average, undetected variants last. Three control strains display no target. For library AAYL49, 15% of the pairings with them gave a signal, with a median of 11 µM and one signal in twenty below 680 nM, so weak values seen in few replicates may be background.

The variant R100E showed 1.4 nM (3 of 3 replicates).
The variant S63Y R100L D106F showed 20 nM (2 of 3 replicates).
The variant Y52F R100N S107L showed 150 nM (3 of 3 replicates).
The variant N30G K65N R100A showed 230 nM (3 of 3 replicates).
The variant G26S R100T showed 370 nM (3 of 3 replicates).
The variant R56Y G99S R100T showed 680 nM (1 of 3 replicates).
The variant Y52I R100N G103R showed 710 nM (1 of 3 replicates).
The variant N30V R100P showed 930 nM (3 of 3 replicates).
The variant D62L K65Q R100P showed 1.0 µM (1 of 3 replicates).
The variant F59K R100Y showed 1.4 µM (3 of 3 replicates).
The variant Y32C R100T T104D showed 2.3 µM (3 of 3 replicates).
The variant G33M G55Y R100V showed 3.5 µM (1 of 3 replicates).
The variant T28Q Y52Q R100W showed 7.5 µM (1 of 3 replicates).
The variant V50A R100A showed 10 µM (3 of 3 replicates).
The variant G33M Y52W R100I showed 11 µM (1 of 3 replicates).
The variant V64N R100V showed 12 µM (2 of 3 replicates).
The variant I34D R57F R100A showed 13 µM (1 of 3 replicates).
The variant T28P Y52Q R100W showed 15 µM (3 of 3 replicates).
The variant G33H I51S R100Q showed 17 µM (2 of 3 replicates).
The variant T58G R100C D106C showed 19 µM (1 of 3 replicates).
The variant T58A S63K R100F showed 19 µM (1 of 3 replicates).
The variant L29N S63K R100S showed 29 µM (2 of 3 replicates).
The variant K65Q R100C showed 42 µM (3 of 3 replicates).
The variant G55D G61N R100A showed 55 µM (2 of 3 replicates).
The variant S53K G55F R100Q showed 66 µM (1 of 3 replicates).
The variant R57T R100P F105V showed 73 µM (1 of 3 replicates).
The variant N30G Y60P R100G showed 76 µM (2 of 3 replicates).
The variant Y60Q D62S R100L showed 190 µM (1 of 3 replicates).
The variant G99W R100T D106R showed 420 µM (1 of 3 replicates).
The variant S35K R100I showed no signal (0 of 3 replicates).
The variant I51P V64E R100Q showed no signal (0 of 3 replicates).
The variant I34F V50W R100N showed no signal (0 of 3 replicates).
The variant G26M F59P R100E showed no signal (0 of 3 replicates).
The variant F27C G33K R100K showed no signal (0 of 3 replicates).
The variant Y32R R100Q G103T showed no signal (0 of 3 replicates).
The variant G33R R100P showed no signal (0 of 3 replicates).
The variant L29C R57A R100W showed no signal (0 of 3 replicates).
The variant G26H R100Q T104N showed no signal (0 of 3 replicates).
The variant Y32H S63V R100Q showed no signal (0 of 3 replicates).
The variant Y52T D54M R100M showed no signal (0 of 3 replicates).
The variant V50M R56G R100M showed no signal (0 of 3 replicates).
The variant G26W V50K R100A showed no signal (0 of 3 replicates).
The variant Y32D R100P S107R showed no signal (0 of 3 replicates).
The variant G99W R100I showed no signal (0 of 3 replicates).
The variant T28M R100F G103S showed no signal (0 of 3 replicates).
The variant Y32A D62Y R100F showed no signal (0 of 3 replicates).
The variant I51S V64M R100H showed no signal (0 of 3 replicates).

Top 8 of the variants detected in all replicates, tightest first:

| changes | apparent Kd | seen in |
|---|---|---|
| R100E | 1.4 nM | 3 of 3 |
| Y52F R100N S107L | 150 nM | 3 of 3 |
| N30G K65N R100A | 230 nM | 3 of 3 |
| G26S R100T | 370 nM | 3 of 3 |
| N30V R100P | 930 nM | 3 of 3 |
| F59K R100Y | 1.4 µM | 3 of 3 |
| Y32C R100T T104D | 2.3 µM | 3 of 3 |
| V50A R100A | 10 µM | 3 of 3 |

In this assay the parent's reference entry averaged 4.4 nM; its copy inside this library read 13 µM (one replicate of three).

From the AlphaSeq antibody data of Engelhart et al. 2022 (doi:10.1038/s41597-022-01779-4), copy in the FLAb collection.